Experimental data from US20260098037A1, “COMPOUND CONTAINING MULTI-FUSED RING STRUCTURE” (Chia Tai Tianqing Pharmaceutical Group Co., Ltd., priority 2023, published 2026).

Chains of the proteins cited; added tags and fusions are not shown. Residues count along the entry.
UniProt P43220, 24-463 limits assumed: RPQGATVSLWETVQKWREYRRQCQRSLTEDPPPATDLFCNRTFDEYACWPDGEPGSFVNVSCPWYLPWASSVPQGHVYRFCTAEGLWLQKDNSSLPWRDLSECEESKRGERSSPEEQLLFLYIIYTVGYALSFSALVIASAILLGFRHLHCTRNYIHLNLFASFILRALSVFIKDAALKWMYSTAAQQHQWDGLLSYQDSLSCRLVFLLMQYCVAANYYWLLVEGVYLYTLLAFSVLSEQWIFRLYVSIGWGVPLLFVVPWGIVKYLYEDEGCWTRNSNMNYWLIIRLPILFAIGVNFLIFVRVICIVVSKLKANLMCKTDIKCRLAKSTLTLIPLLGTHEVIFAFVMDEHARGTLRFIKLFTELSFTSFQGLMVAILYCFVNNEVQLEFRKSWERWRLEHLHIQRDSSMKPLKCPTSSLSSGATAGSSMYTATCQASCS

Assays:
[1] = molecular target: GLP1R (Homo sapiens, UniProt P43220); assay: In vitro cellular cAMP expression activity assay (CRE-luciferase reporter); settings: read-out: HEK293/CRE-Luc/GLP-1R EC50; HEK293/CRE-Luc/GLP1R cells, 6 h incubation, luciferase luminescence
Protocol: HEK293/CRE-Luc/GLP1R cells (manufacturer: GenScript Biotech Corporation) in a good growth state were taken, washed with PBS, and digested with pancreatin. The digestion was terminated with a complete medium. The cells were collected into a centrifuge tube, adjusted to a cell density of 4×10^5 cells/mL using a DMEM+2% FBS medium, seeded in a 96-well plate (100 μL/well), and incubated at 37° C. for 1 h. After 1 h, the compounds were added using a nanoliter pipettor such that the final concentrations of the compounds were 10 nM-0.0006 nM. The compounds were added in duplicate, and a control was set. After the cells were incubated in a cell incubator for another 6 h, a detection reagent Luciferase (manufacturer: Vazyme Biotech, 50 μL/well) was added. The plate was left to stand at room temperature for 3 min to fully lyse the cells, and the luminescence was detected on a PerkinElmer Envision microplate reader. A dose-response curve was fitted by four-parameter analysis, and the EC50 was calculated.

[2] = In vitro stability assay in liver microsome (HLM); settings: liver microsome 0.5 mg/mL, NADPH+MgCl2, PBS pH 7.4, 1 h
Protocol: (§1) Liver microsome incubation samples were prepared by mixing a PBS buffer (pH 7.4), a liver microsome solution (0.5 mg/mL), a test compound, and an NADPH+MgCl2 solution, and incubated at […] and 300 rpm for 1 h. Zero-hour samples were prepared by mixing a PBS buffer (pH 7.4), a liver microsome solution (0.5 mg/mL), and a test compound. An acetonitrile solution containing an internal standard was added to the samples, and supernatants were prepared by protein precipitation, diluted, and then assayed by LC/MS/MS.

[3] = In vitro stability assay in liver microsome (MLM); settings: liver microsome 0.5 mg/mL, NADPH+MgCl2, PBS pH 7.4, 1 h
Protocol: as §1

[4] = In vivo pharmacokinetic evaluation in mice; settings: ICR mice; for AUC(0-24) / AUC(0-∞): plasma
Protocol: ICR mice of 18-22 g were randomized into 4 groups of 9 mice after 3-5 days of acclimatization. […]
The test animals (ICR mice) were fasted from 12 h pre-dose to 4 h post-dose, and given free access to water throughout the study.
Orbital blood samples of about 0.1 mL were collected at 15 min, 30 min, 1 h, 2 h, 3 h, 4 h, 6 h, 8 h, 10 h, and 24 h post-dose for the intragastric administration, and at 5 min, 10 min, 30 min, 1 h, 2 h, 4 h, 6 h, 8 h, 10 h, and 24 h post-dose for the intravenous administration. The blood sampling was performed at 3-4 time points for each mouse, 3 mice per time point. The collected whole blood was transferred into EDTA-K2-containing centrifuge tubes and stored at 4° C., and, within 1 h, centrifuged at 4° C. at 4000 rpm for 10 min to separate the plasma. All the plasma samples were immediately stored after collection at −20° C. for testing.
30 μL of the plasma sample to be tested and a standard curve sample were pipetted and added with 300 μL of an acetonitrile solution containing an internal standard (20 ng/mL of diazepam). The mixture was shaken to mix well for 5 min, and centrifuged at 13,000 rpm for 10 min. 80 μL of the supernatant was taken and diluted with 80 μL of ultrapure water. After a thorough mixing, 2 μL of the resulting sample was taken for liquid chromatography-mass spectrometry, and the chromatogram was recorded.

[5] = system: GLP-1R humanized C57BL/6J mice; assay: Evaluation of hypoglycemic effect in mice (intraperitoneal glucose challenge); settings: intragastric dose 1 mg/kg, glucose 2 g/kg ip 5 h after administration
From the text: GLP-1R humanized C57BL/6J mice of 20-22 g were used in this study after 3 days of acclimatization. All the animals were deprived of food but not water until the end of study. Blood samples were collected from the tail tip of the mice.
The test animals were deprived of food but not water overnight before the study. The next day, blood was collected from all the animals for blood glucose testing, and the animals were randomized into a normal control group, a positive control group, and test compound groups by blood glucose and body weight, with 6 animals in each group. The groups were then given intragastric doses, and 5 h after the administration, an intraperitoneal injection of glucose solution (2 g/kg) was given. The blood glucose concentration was measured at 0.25 h, 0.5 h, 1 h, 2 h, and 3 h after the glucose injection. The blood glucose was recorded throughout the study, and the area under the blood glucose-time curve AUC0-180 min Glu was calculated.

Question: With `Cc1cc(-n2nc3c(c2-n2ccn(-c4cc5c(cc4F)C4(CC4)C(=O)N5C)c2=O)[C@H](C)N(C(=O)c2cc4cc([C@H]5CCOC(C)(C)C5)ccc4n2[C@@]2(c4noc(=O)[nH]4)C[C@@H]2C)CC3)cc(C)c1F` as the compound, how does the EC50 [1] read?
Answer: < 500 pM

Question: And the “HLM Remaining (T = 60 min)” value [2]?
Answer: 87.69%

Question: What about the “MLM Remaining (T = 60 min)” value [3] of the same compound?
Answer: 87.72%

Question: What about the “Absolute bioavailability F” value ([4]; ig 3 mg/kg vs iv 0.5 mg/kg) of the same compound?
Answer: 42.42%

Question: What about the “MRT(0-24)” value ([4]; ig, dose 3 mg/kg) of the same compound?
Answer: 9.28 h

Question: And the t½ ([4]; ig, dose 3 mg/kg)?
Answer: 5.40 h

Question: And the “AUC(0-24)” value ([4]; ig, dose 3 mg/kg)?
Answer: 6215 ng·h/mL

Question: And the “AUC(0-∞)” value ([4]; ig, dose 3 mg/kg)?
Answer: 6539 ng·h/mL

Question: And the “MRT(0-24)” value ([4]; iv, dose 0.5 mg/kg)?
Answer: 5.00 h

Question: And the t½ ([4]; iv, dose 0.5 mg/kg)?
Answer: 5.35 h

Question: What about the “AUC(0-24)” value ([4]; iv, dose 0.5 mg/kg) of the same compound?
Answer: 2505 ng·h/mL

Question: And the “AUC(0-∞)” value ([4]; iv, dose 0.5 mg/kg)?
Answer: 2569 ng·h/mL

Question: And the “AUC0-180 min Glu reduction (%)” value [5]?
Answer: 80%
